For one molecule, IC50 results are on record in paper PMC8404221 (European journal of pharmaceutical sciences : official …, 2021).

Protein sequences, listed by entry. Tags and fused reporters are not part of them.
UniProt P21397, whole entry: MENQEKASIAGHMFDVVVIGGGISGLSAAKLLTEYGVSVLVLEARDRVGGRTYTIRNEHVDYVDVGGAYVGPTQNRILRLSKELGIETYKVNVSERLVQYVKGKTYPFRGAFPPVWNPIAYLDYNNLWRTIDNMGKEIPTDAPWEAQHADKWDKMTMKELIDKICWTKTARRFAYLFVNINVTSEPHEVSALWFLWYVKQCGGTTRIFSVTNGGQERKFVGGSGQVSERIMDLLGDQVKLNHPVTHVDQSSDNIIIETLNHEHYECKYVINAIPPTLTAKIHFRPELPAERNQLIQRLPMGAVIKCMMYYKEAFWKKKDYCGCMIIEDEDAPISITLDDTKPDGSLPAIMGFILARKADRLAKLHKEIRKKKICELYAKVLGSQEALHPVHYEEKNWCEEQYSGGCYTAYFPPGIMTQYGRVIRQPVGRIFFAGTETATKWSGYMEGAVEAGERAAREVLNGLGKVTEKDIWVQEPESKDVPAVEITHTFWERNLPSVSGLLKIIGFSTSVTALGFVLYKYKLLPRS

In this assay the target is Monoamine oxidase-A (MAO-A) (Homo sapiens, UniProt P21397). Kind of assay: biochemical. The following applies: MAO-A IC50, MAO-A Glo.

Values joined by “and” are separate entries in the source; they are usually repeats but may differ in a detail not shown here. Equal values may be shown once.

On to `c1ccc2c(c1)[nH]c1cnccc12` [Norharmane, norharmane], for which the IC50 is 4.3 µM and 4.29 µM.
